Reference: US5292729A, “II-bond aromatic vitamin chelates” (Albion International, Inc., priority 1992, dated 1994)

Experiment: 65Zn level in blood of rats after oral gavage, scintillation count
Details: 2.0 hrs after dosing; oral 0.03 mg Zn, 15 μcuries 65Zn; mean ± standard deviation
Description: The chelate thus prepared was diluted such that a 5 μl dose contained about 0.03 mg Zn and 15 μcuries of ^65 Zn activity. This dose, when administered to a standard laboratory rat weighing 150±25 gms, closely approximates the RDA of 15 mg Zn for a human being weighing about 70 kg.
Ten Sprague Dawley rats, weighing 190±10 grams each were divided into two groups of five rats. Five rats were designated the test group and the other five rats the control group.
No surgery was performed as all animals were given light doses of nembutal (40 mg/kg) to improve ease of handling and minimize injury during lavage and bloodletting.
Beginning 30 minutes after dosing and continuing at 30 minute intervals up to a period of 3 hours following dosing, 0.1 ml of blood was withdrawn from rats in both the test and control groups. The blood was then analyzed for ^65 Zn by scintillation count.

With [Cl-].[Cl-].[Zn+2] [ZnCl2] the 65Zn in blood was 227 ± 18 CCPM.
